# Values joined by “and” are separate entries in the source; they are usually repeats but may differ in a detail not shown here. Equal values may be shown once.
# Protein sequences, listed by entry. Tags and fused reporters are not part of them.
# UniProt P98170, whole entry: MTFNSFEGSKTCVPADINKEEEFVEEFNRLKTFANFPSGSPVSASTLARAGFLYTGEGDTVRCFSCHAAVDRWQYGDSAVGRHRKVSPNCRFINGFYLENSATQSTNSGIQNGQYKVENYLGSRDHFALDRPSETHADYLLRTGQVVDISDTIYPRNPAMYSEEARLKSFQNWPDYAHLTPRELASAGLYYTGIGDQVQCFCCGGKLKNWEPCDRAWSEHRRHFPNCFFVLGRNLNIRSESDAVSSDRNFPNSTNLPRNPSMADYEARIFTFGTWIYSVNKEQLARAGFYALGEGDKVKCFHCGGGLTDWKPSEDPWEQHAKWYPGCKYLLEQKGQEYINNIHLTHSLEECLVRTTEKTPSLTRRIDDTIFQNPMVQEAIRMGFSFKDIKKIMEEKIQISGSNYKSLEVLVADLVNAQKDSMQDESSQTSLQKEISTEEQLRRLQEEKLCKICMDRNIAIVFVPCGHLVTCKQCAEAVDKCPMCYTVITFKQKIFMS
# Legend:
# [1] = biological target: XIAP (Homo sapiens, UniProt P98170); test: XIAP expression in tumors harvested from A4-treated PDXs (immunoblot densitometry); conditions: for XIAP/B-actin relative to 0 h, single sets M1, M2, M3 / XIAP/B-actin relative to 0 h, AVG: tumor; for XIAP/B-actin relative to 0 h, AVG: n = 3
# Protocol: FIGURE 4 Treatment with XIAP-specific antagonist A4 prolongs and improves overall survival in high-risk neuroblastoma PDXs. A, Top, Immunoblot analysis of XIAP, cleaved PARP and cleaved caspase-3 expression in tumors harvested from treated neuroblastoma PDXs. Neuroblastoma PDXs were treated with 10 mg/kg A4 via intraperitoneal injection. Tumors were harvested over the following time courses of 0, 0.5, 1, 2, 4, 24, and 48 hours after dosing. β-actin is used as internal control. Bottom, Graphical representation of densitometry ratio for XIAP expression normalized to β-actin in tumors harvested from neuroblastoma PDXs as described in A (Supplementary Data S2). Values were expressed as mean ± SD with n = 3/timepoint. B, Kaplan–Meier survival plot of MYCN-amplified neuroblastoma PDXs (n = 9/treatment group). Blue line indicates percentage survival of vehicle-treated mice (control) and green line is the percentage survival of A4-treated mice (10 mg/kg). The mice were monitored over a period of 7 weeks, including 4 weeks of stabilizing implantation and subsequent 3 weeks of treatment period. log-rank (Mantel–Cox test) derived from Kaplan–Meier survival plot was used for statistical comparisons between groups with *, P < 0.05. C, Bioluminescence imaging of tumor growth in two representative neuroblastoma PDXs.
# Whole cell lysates harvested were lysed in EBC buffer (pH 8.0 of 50 mM Tris, 0.5% NP-40, 120 mM sodium chloride) containing protease inhibitors and protein concentration were quantified using the Bradford assay (Thermo Fisher Scientific). 60 -100 µg of proteins were separated by 12% gel SDS-PAGE followed by a wet-transfer onto PVDF membranes (BioRad). Membranes were probed overnight at 4°C with specific primary antibodies as stated in key resources table. Detection was performed using X-ray film with enhanced chemiluminescence method (Merck) Densitometric analysis of the blots for quantification of protein expression ratios was performed using ImageJ software.
# The testing dose of A4 10 mg/kg was injected intraperitoneally into the orthotopic neuroblastoma PDXs. 150-200 μL of blood was taken from mice via cardiac puncture and tumors were harvested over the following time courses of 0, 0.5, 1, 2, 4, 24 and 48 hours post-dosing (n=3/time point). The concentrations of A4 in mouse plasma and tumor samples were determined and validated by a highly sensitive liquid chromatography tandem mass spectrometry (LC–MS/MS) method with multiple reaction monitoring (MRM) mode. The LC-MS/MS system consisted of Agilent 1290 ultra high-performance liquid chromatography (UHPLC) connected in tandem to Sciex QTRAP 5500 mass spectrometer system. Chromatographic separation was optimized using a liquid–liquid extraction and a reversed phase separation on a Kinetex F5 column (100 mm x 2.1 mm, 2.6 μm) with isocratic elution. Ethyl indole-2-carboxylate was used as the internal standard (IS). MRM transitions 441.2/189.0 (A4) and 190.1/114.1 (IS) were monitored with a dwell time of 300 msec and analyst 1.6.2 software (Sciex) was used to quantify the peaks with 1/x2 weighted linear regression.
# [2] = test system: XIAP and c-IAP1; test: Immunoblot analysis of XIAP and c-IAP1 expression; conditions: 10 µmol/L
# Source text: FIGURE 2 Specific loss of XIAP expression, not c-IAP1, is required for mediating apoptosis in high-risk neuroblastoma cells. A, Summary of IAP antagonists’ efficacy in killing neuroblastoma cells. The IAP antagonists were ranked on the basis of the average potency of killing (IC50) and specificity of killing toward only neuroblastoma cells: (i) A4, (ii) B3, (iii) BV6, (iv) LCL161, (v) CUDC-427, (vi) Debio 1143. B, Immunoblot analysis of c-IAP1, XIAP, PARP, and cleaved caspase-3 expression in neuroblastoma cell lines, BE(2)-C and KELLY, and noncancerous normal tissue cell line, HS5, after treatment with 10 µmol/L of either A4, B3, or BV6 at indicated timings (three independent replicates). C, Graphical representation showing the fold change of caspase-3/7 activity relative to vehicle controls after treatment with 10 µmol/L of either A4, B3, or BV6 at indicated timings (data were expressed as mean ± SD of three independent experiments conducted in duplicates; *, P < 0.05). D, Morphology of cells 48 hours posttreatment with 10 µmol/L of either A4, B3, or BV6. […]
# Whole cell lysates harvested were lysed in EBC buffer (pH 8.0 of 50 mM Tris, 0.5% NP-40, 120 mM sodium chloride) containing protease inhibitors and protein concentration were quantified using the Bradford assay (Thermo Fisher Scientific). […]
smiles,measurement,setting,value
COC(=O)c1[nH]c2ccc(Cl)cc2c1NC(=O)CN1CCN(Cc2ccccc2)CC1,XIAP tissue expression and apoptosis in PDX tumors,"[1]; 10 mg/kg, serial timepoints over 48 hours",eventual reduction of XIAP tissue expression and increased apoptosis
same,"XIAP/B-actin relative to 0 h, single sets M1, M2, M3",[1]; 0.5 h after 10 mg/kg i.p.,1.7198 and 1.002 and 1.168
same,"XIAP/B-actin relative to 0 h, AVG",[1]; 0.5 h after 10 mg/kg i.p.,1.297
same,"XIAP/B-actin relative to 0 h, single sets M1, M2, M3",[1]; 1 h after 10 mg/kg i.p.,0.9492 and 1.25 and 1.102
same,"XIAP/B-actin relative to 0 h, AVG",[1]; 1 h after 10 mg/kg i.p.,1.1
same,"XIAP/B-actin relative to 0 h, AVG",[1]; 2 h after 10 mg/kg i.p.,1.145
same,"XIAP/B-actin relative to 0 h, AVG",[1]; 4 h after 10 mg/kg i.p.,0.6234
same,"XIAP/B-actin relative to 0 h, single sets M1, M2, M3",[1]; 24 h after 10 mg/kg i.p.,0.8473 and 1.329 and 0.8358
same,"XIAP/B-actin relative to 0 h, AVG",[1]; 24 h after 10 mg/kg i.p.,1.004
same,"XIAP/B-actin relative to 0 h, single sets M1, M2, M3",[1]; 48 h after 10 mg/kg i.p.,0.7395 and 0.6136 and 0.6311
same,"XIAP/B-actin relative to 0 h, AVG",[1]; 48 h after 10 mg/kg i.p.,0.6614
same,XIAP and c-IAP1 expression (immunoblot),[2]; BE(2)-C and KELLY cells,loss of XIAP expression over time with intact c-IAP1 expression
same,XIAP and c-IAP1 expression (immunoblot),[2]; HS5 cells,minimal change in XIAP expression with c-IAP1 remaining intact
